Assay [1] concerns the target T1, Kappa-type opioid receptor (Homo sapiens, UniProt P41145). Briefly: Antagonist activity against HA-tagged human recombinant kappa opioid receptor expressed in CHO cell membranes incubated for 1 hr by [35S]GTPgammaS binding assay. Format: functional. (Binding of GTPγS marks nucleotide exchange on a G protein.)
The target of assay [2] is T1, Kappa-type opioid receptor. Briefly: Antagonist activity against HA-tagged human recombinant kappa opioid receptor expressed in CHO cells assessed as inhibition of U69,593-induced ERK phosphorylation pre-incubated with compound before U69,593 stimulation for 10 mins. Format: cell-based.
Assay [3] addresses T1, Kappa-type opioid receptor. Description: Antagonist activity against human kappa opioid receptor expressed in human U2OS cells co-expressing beta-arrestin2 pre-treated for 15 mins before U69,593 stimulation for 90 mins by DiscoveRx beta-arrestin2 recruitment based PathHunter assay. Format: cell-based. On the technique in general: Arrestin recruitment assays detect the binding of arrestin to an activated receptor.

Amino acid sequences for entries named in this document (tags omitted). A change or cut given only in a name is not applied to a line headed by its entry.
UniProt P41145: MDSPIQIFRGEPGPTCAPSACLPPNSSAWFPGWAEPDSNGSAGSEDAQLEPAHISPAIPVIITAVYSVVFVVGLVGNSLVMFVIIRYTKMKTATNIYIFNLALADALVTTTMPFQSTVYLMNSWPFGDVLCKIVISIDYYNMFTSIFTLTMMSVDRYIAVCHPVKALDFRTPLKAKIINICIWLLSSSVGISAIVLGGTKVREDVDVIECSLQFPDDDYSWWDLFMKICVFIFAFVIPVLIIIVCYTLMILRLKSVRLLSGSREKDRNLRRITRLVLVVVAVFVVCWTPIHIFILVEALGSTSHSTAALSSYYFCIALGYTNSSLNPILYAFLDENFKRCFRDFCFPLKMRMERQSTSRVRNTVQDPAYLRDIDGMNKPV

pIC50: −log10 of the molar value.

As to `Cc1ccc(S(=O)(=O)NCc2ccc(C(=O)NCCN(Cc3ccc(Br)cc3)C(C)C)cc2)cc1`, the pIC50 was 6.77 in assay [1], 6.12 in assay [2] and 6.03 in assay [3].
The corresponding values for `CCc1ccc(S(=O)(=O)N2CCc3cc(C(=O)NCCN(Cc4ccccc4)C(C)(C)C)ccc3C2)cc1` are 8.47, 6.84 and 6.73.

For orientation: pIC50 means the IC50 on a negative log10 scale, so that one unit is a factor of ten.
